# Measurements taken from patent US20100222282A1, “METHOD OF DIAGNOSIS AND METHOD OF TREATMENT” (ENTRESS AB, priority 2006, published 2010).
# “And” between values parts separate entries of the source, which are not always exact repeats. Equal entries are not always repeated. Where two headings read alike, the source gives them in different places.
# Experiments:
# [1] = in vivo; settings: for AKG Day 1 (blood, individual rats): beginning of the experiment; for AKG Day 1 (blood, individual rats) / concentration at 1 day: baseline; for concentration at 56 day / concentration at 1 day: Sprague-Dawley, rat, in vivo; for concentration at 1 day: Average AKG blood level before the experiment (Day 1)
# Excerpt: (§1) The aim of this experiment was to study the relationship between the blood level of AKG and survival of elderly rats. Forty Sprague-Dawley rats randomly chosen (2-3 years old) from the Department of Cell & Organisms Biology in Lund University were used in the experiment. The rats were divided into four groups, 10 rats each, two control groups and two experiment groups. […] The mixtures were titrated with 0.01 M NaOH to correct the pH.
# (§2) Blood samples were taken at the beginning of the experiment from all rats and blood AKG levels were estimated. Experimental time was 8 weeks and parameters as AKG blood levels and survival were monitored.
# [2] = tested on: Sprague-Dawley rats (2-3 years old); settings: 8 weeks; for Number of dead animals: oral, 10 elderly rats
# Excerpt: as §1, §2
compound,measurement,setting,value
"O=C([O-])CCC(=O)C(=O)[O-].[Na+].[Na+] [Na2AKG * 2H2O, sodium alpha-ketoglutarate]","AKG Day 1 (blood, individual rats)",[1]; Experiment Group I (2.28 g),0.34 µg/mL and 0.31 µg/mL and <0.1 µg/mL and 0.2 µg/mL and 0.54 µg/mL and 0.32 µg/mL and 0.15 µg/mL and 0.6 µg/mL
same,"AKG Day 56 (blood, individual rats)","[1]; Experiment Group I (2.28 g), end of the experiment",0.75 μg/ml and 0.82 μg/ml and 0.78 μg/ml and 1.04 μg/ml and 0.7 μg/ml and 0.6 μg/ml (2×) and 0.9 μg/ml
same,"AKG Day 1 (blood, individual rats)",[1]; Experiment Group II (22.8 g),0.34 µg/mL and 0.24 µg/mL and 0.23 µg/mL and 0.75 µg/mL and 0.5 µg/mL and 0.42 µg/mL and 0.25 µg/mL and 015 µg/mL
same,"AKG Day 56 (blood, individual rats)","[1]; Experiment Group II (22.8 g), end of the experiment",1.5 μg/ml and 0.98 μg/ml and 0.89 μg/ml and 0.7 μg/ml and 1.4 μg/ml and 1.11 μg/ml and 1.07 μg/ml and 0.95 μg/ml (2×) and 0.97 μg/ml
same,concentration at 56 day,[1]; 2.28 g,800 ± 140 ng/mL
same,concentration at 56 day,"[1]; 2.28 g, AKG Day 56 (blood, individual rats), Experiment Group I (2.28 g), end of the experiment",950 ng/mL
same,concentration at 1 day,"[1]; 2.28 g, Experiment Group I (2.28 g)",290 ± 160 ng/mL
same,concentration at 56 day,[1]; 22.8 g,1050 ± 230 ng/mL
same,concentration at 1 day,"[1]; 22.8 g, Experiment Group II (22.8 g)",330 ± 180 ng/mL
same,concentration at 56 day,"[1]; po, Blood level of AKG restored by oral administration, elderly rats (over 24 months)",~1000 ng/mL
same,Number of dead animals,"[2]; Experiment Group I, Na2AKG * 2H2O (2.28 g)",0
same,Number of dead animals,"[2]; Experiment Group II, Na2AKG * 2H2O (22.8 g)",0
same,Survival rate of the rats in the experimental groups,[2]; elderly rats,drastically improved
